In paper PMC11951083, “Highly Specific Miniaturized Fluorescent Monoacylglycerol Lipase Probes Enable Translational Research” (Journal of the American Chemical Society, 2025) one finds IC50 data, which are given here for six compounds.

The chains behind the UniProt entries cited, without tags or fusion partners.
UniProt O35678, whole entry: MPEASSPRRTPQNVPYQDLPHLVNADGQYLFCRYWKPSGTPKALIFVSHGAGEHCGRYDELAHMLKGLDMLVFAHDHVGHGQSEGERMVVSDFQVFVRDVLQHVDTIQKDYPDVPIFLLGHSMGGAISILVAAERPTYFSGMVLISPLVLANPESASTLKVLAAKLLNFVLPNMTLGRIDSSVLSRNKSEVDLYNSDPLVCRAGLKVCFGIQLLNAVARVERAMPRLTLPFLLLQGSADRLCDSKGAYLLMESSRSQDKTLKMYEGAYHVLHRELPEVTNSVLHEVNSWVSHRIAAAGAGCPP
UniProt Q99685, whole entry: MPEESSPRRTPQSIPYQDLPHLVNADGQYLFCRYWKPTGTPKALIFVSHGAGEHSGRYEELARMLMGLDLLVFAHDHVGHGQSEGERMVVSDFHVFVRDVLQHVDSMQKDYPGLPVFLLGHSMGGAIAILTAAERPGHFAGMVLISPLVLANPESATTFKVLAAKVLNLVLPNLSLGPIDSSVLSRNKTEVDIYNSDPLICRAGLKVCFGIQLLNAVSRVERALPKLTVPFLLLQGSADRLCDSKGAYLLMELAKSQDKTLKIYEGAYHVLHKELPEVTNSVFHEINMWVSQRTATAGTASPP

A value given as a limit tells only on which side of the number the result lay.

The target in one assay is mMAGL (Mus musculus, UniProt O35678). Description: Native MS (RapidFire) 2-AG substrate assay, purified mouse MAGL. The settings on record: read-out: IC50 against purified MAGL ± SEM, Mouse; SI Table 1.
The next assay addresses MAGL (Homo sapiens, UniProt Q99685). Nature of the assay: Native MS (RapidFire) 2-AG substrate assay, purified human MAGL. It is filed as biochemical. As to conditions: read-out: IC50 against purified MAGL ± SEM, Human; SI Table 1.

Turning to `O=C1CO[C@H]2CCN(C(=O)N3CCC(OC4=C5C=CC=[N+]5[B-](F)(F)n5cccc54)CC3)C[C@H]2N1`, the IC50 on mMAGL was over 10 µM; on MAGL, 6.32 µM.
Regarding `O=C(OC(C(F)(F)F)C(F)(F)F)N1CC2(CC(=CC3=C4C=CC=[N+]4[B-](F)(F)n4cccc43)C2)C1`, the IC50 at mMAGL was determined as 0.00941 µM.
Same read-out and setting: the same measure for `O=C1CO[C@H]2CCN(C(=O)N3CC4(CCC(=CC5=C6C=CC=[N+]6[B-](F)(F)n6cccc65)CC4)C3)C[C@H]2N1`: 0.00185 µM; for `O=C1NC2(CO1)CN(C(=O)N1CC3(CC(OC4=C5C=CC=[N+]5[B-](F)(F)n5cccc54)C3)C1)C2`: 0.00471 µM.
Turning to `O=C1CO[C@H]2CCN(C(=O)N3CC=C(C4=C5C=CC=[N+]5[B-](F)(F)n5cccc54)CC3)C[C@H]2N1`, the IC50 on mMAGL and at MAGL was over 10 µM throughout.
Regarding `O=C1CO[C@H]2CCN(C(=O)N3CC(COC4=C5C=CC=[N+]5[B-](F)(F)n5cccc54)C3)C[C@H]2N1`, at mMAGL, the IC50 is over 10 µM.
